Amino acid sequences for entries named in this document (tags omitted). A change or cut given only in a name is not applied to a line headed by its entry.
UniProt Q01727: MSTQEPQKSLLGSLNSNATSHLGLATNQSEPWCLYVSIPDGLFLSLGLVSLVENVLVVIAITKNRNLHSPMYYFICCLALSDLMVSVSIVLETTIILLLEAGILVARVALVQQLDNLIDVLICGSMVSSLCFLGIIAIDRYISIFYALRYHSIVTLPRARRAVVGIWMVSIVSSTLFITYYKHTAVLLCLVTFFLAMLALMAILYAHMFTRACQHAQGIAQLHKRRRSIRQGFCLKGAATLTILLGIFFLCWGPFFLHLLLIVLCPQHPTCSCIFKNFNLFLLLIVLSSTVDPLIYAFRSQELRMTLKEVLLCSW

According to ChEMBL document CHEMBL3580664, “Synthesis and Pharmacology of α/β(3)-Peptides Based on the Melanocortin Agonist Ac-His-dPhe-Arg-Trp-NH2 Sequence” (ACS Med Chem Lett, 2015):

Biological target: Melanocyte-stimulating hormone receptor (Mus musculus, UniProt Q01727)
Experiment: Agonist activity at mouse MC1 receptor expressed in HEK-293 cells assessed as cAMP response measured after 2 hrs incubation by cAMP Alphascreen assay
Type: functional, cell-based, HEK293

Row | Compound | EC50
1 | CC(=O)N[C@@H](Cc1cnc[nH]1)C(=O)N[C@H](Cc1ccccc1)C(=O)N[C@@H](CCCN=C(N)N)C(=O)N[C@@H](Cc1c[nH]c2ccccc12)C(N)=O | 18 nM
2 | CC(=O)N[C@@H](Cc1c[nH]cn1)C(=O)N[C@@H](Cc1ccccc1)C(=O)N[C@@H](CCCN=C(N)N)C(=O)N[C@@H](Cc1c[nH]c2ccccc12)C(N)=O | 2360 nM
